We go through 1 substance from patent US20030032096A1 (US Dept. of Health and Human Services, published 2003).

Chains of the proteins cited; added tags and fusions are not shown. Residues count along the entry.
UniProt P49190, 25-550: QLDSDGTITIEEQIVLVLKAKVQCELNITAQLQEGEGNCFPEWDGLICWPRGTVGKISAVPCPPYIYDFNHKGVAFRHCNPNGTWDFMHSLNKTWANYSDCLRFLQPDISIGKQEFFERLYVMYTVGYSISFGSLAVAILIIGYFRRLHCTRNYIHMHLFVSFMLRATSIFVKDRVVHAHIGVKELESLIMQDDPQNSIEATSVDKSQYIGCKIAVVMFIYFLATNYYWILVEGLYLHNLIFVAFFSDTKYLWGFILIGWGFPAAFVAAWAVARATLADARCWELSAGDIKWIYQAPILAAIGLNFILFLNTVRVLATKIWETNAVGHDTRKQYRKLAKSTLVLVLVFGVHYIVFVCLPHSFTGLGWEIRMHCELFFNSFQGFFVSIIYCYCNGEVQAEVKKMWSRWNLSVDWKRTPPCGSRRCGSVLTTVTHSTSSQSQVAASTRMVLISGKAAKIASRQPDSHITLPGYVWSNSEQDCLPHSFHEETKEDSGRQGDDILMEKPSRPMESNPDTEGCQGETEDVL
UniProt P70555, 25-546: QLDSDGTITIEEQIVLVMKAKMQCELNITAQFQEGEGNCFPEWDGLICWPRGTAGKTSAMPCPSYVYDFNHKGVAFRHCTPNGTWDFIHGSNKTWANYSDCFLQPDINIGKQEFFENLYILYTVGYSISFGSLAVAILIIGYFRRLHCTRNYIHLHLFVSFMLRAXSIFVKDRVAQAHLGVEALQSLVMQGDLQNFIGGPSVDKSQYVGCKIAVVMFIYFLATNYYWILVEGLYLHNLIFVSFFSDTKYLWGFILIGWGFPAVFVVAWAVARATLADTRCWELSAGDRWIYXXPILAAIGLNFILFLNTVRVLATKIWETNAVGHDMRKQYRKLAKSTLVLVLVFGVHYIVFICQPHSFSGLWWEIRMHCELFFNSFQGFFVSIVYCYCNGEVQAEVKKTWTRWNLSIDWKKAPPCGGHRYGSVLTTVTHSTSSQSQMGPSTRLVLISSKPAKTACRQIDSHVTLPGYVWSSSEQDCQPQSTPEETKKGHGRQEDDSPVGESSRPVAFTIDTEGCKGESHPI

In assay [1] the target is human parathyroid hormone type 2 receptor (PTH2 receptor) (human) (UniProt P49190). The assay can be described thus: cell-based or functional assay.
A further assay has as its target rat PTH2 receptor (rat, UniProt P70555 25-546). Briefly: cell-based or functional assay.

On to “PTHrP(1-34) (from UniProt P12272 37-70) (peptide)”, for which the -logEC50 (cAMP accumulation) stood at 6.03 in assay [1] and 7.17 in the assay with rat PTH2 receptor. Moreover, the EC50 (cAMP accumulation) was 930 nM in assay [1] and 68 nM with rat PTH2 receptor.
